# Screens from PubChem BioAssay.
# Only some compounds are listed: those with a hit (about 16% of all), similar ones and a draw of the others.
# TDP1 block = TDP1 (human) enzyme inhibition. recombinant TDP1, AlphaScreen DNA substrate cleavage. Potency, µM (titrated, usually from 130 µM), actives largely listed as inhibitors. 350,000 compounds, 0.28% hits. Q9NUW8; also: nearly all actives have a fitted effect of over 40% in size
#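 Recombinant E. coli-expressed Tdp1 (1 nM) preincubated with compound 15 min at RT, then 5'-biotin/3'-phosphotyrosine-FITC DNA substrate (15 nM) added for 5 min. AlphaScreen beads (10 ug/ml) added, 10 min RT; tyrosine-FITC cleavage read as signal loss.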
# miR-21 FLuc = miR-21 reporter, rising signal; 340,000 tested, under 10 active; Potency, µM (highest dose often 38.3 µM); HeLa miR-21 FLuc reporter, luciferase, 48 h; active = well fitted rising curve with a large enough effect; inconclusive = small, poorly fitted or top-dose-only effect; inactive = no such curve, though single readings can be large or run the other way;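 further: miR-21 action dims this reporter so a rising signal means less miR-21 action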
#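 Using DMEM plus 10% FBS, HeLa miR-21-FLuc cells are incubated with test compounds (final up to about 40uM) for 48 hours; firefly luciferase signal is then imaged following reagent-mediated lysis.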
# uPA surface inh = blocks generation of uPA at the cell surface; Potency, µM (series often up to 38.3 µM), most hits filed as inhibitors; cell surface uPA generation assay, qHTS; AID 540303; 330,000 compounds, 0.31% hits; active = well fitted inhibition curve with a large enough effect; inconclusive = small, poorly fitted or top-dose-only effect; inactive = no such curve, though single readings can be large or run the other way; tested in mouse RAW 264.7 cells; also: nearly all actives have a fitted effect of over 55% in size
# DT40 TDP1 CPT = growth inhibition of DT40 Tdp1-/-;hTDP1 cells with camptothecin (screen for TDP1 inhibitors); 420,000 compounds, 12% hits; Potency, µM (top dose mostly 46.2 µM), hits mostly inhibitors; chicken DT40 Tdp1-/-;hTDP1 cells + 20 nM CPT, ATP luminescence, 48 h; AID 686979; also: nearly all actives have a fitted effect of over 55% in size
#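 Chicken DT40 Tdp1-/- cells stably complemented with human TDP1 were seeded at 400 cells/well in medium containing 20 nM camptothecin, exposed to pin-transferred compounds, and grown at 37 °C for at least 48 hr. Viability was read as ATP luminescence.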
# TDP1 cell noCPT = qHTS for Inhibitors of human tyrosyl-DNA phosphodiesterase 1 (TDP1): qHTS in cells in absence of CPT | Potency, µM (titrated, usually from 46.2 µM), most hits filed as inhibitors | 420,000 compounds, 15% hits | DT40 Tdp1-/- hTDP1 cells, no CPT, ATP luminescence, 48 h; also: nearly all actives have a fitted effect of over 55% in size
#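 Stably hTDP1-transfected Tdp1-null chicken DT40 cells were treated with library compounds minus camptothecin and grown for at least 48 hr at 37 °C, after which cellular ATP was quantified by luminescence.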
# Numbers stand for hits; . = inactive; ? = inconclusive; / = not tested or not shown; [ ] = dose if it differs, or a comment. Unless noted, calls follow the shape of the dose curve; as a rule, active = well fitted curve in the direction sought with a large enough effect; inconclusive = small, poorly fitted or top-dose-only effect, or another doubt; inactive = no such curve, though single readings can be large; an effect the other way counts as inactive or inconclusive.
SMILES,TDP1 block,miR-21 FLuc,uPA surface inh,DT40 TDP1 CPT,TDP1 cell noCPT
COc1ccc(OC)c(NC(=O)Nc2cccc(OCc3cc(=O)n4cc(C)ccc4n3)c2)c1,.,.,/,8.2µM,18.4µM
COc1cc(OC)c(NC(=O)Nc2ccccc2OCc2cc(=O)n3cc(C)ccc3n2)cc1Cl,.,.,/,8.2µM,9.2µM
Cc1ccn2c(=O)cc(COc3cccc(NC(=O)Nc4cccc(Cl)c4C)c3)nc2c1,.,.,/,?,23.1µM
CCC(=O)Nc1cccc(OCc2cc(=O)n3cc(C)ccc3n2)c1,.,.,/,?,?
Cc1ccc(NC(=O)Nc2ccccc2OCc2cc(=O)n3ccccc3n2)c(Cl)c1,.,.,/,.,.
COc1cc(OC)c(NC(=O)Nc2cccc(OCc3cc(=O)n4ccccc4n3)c2)cc1Cl,.,.,/,18.4µM,13µM
COc1ccc(C(=O)Oc2ccc3c(-c4ccc(OC)cc4)cc(=O)oc3c2)cc1,.,/,/,.[9.04 µM],.[9.04 µM]
Cc1cccc(OCC(=O)Nc2ccccc2OCc2cc(=O)n3cc(C)ccc3n2)c1,.,.,/,13µM,?
Cc1ccc2nc(COc3ccccc3NC(=O)COc3ccccc3Cl)cc(=O)n2c1,.,.,/,.,.
CN(C(=O)CN1C(=O)NC(c2ccccc2)(c2ccccc2)C1=O)C1CCS(=O)(=O)C1 (stereo not drawn),.,/,?,.,.
O=C(C1=C[C@H](C2CCCCC2)C[C@H](OCc2ccc(CO)cc2)O1)N1CCN(Cc2ccccc2)CC1,.,.,?,18.4µM,18.4µM
O=C(C1=C[C@@H](C2CCCCC2)C[C@@H](OCc2ccc(CO)cc2)O1)N1CCN(Cc2ccccc2)CC1,.,.,?,20.6µM,16.4µM
O=C(Nc1ccccc1)C1=C[C@H](C2CCCCC2)C[C@H](OCc2ccc(CO)cc2)O1,.,.,.,?,?
O=C(Nc1ccccc1)C1=C[C@@H](C2CCCCC2)C[C@@H](OCc2ccc(CO)cc2)O1,.,.,.,18.4µM,23.1µM
CCc1nc2sccc2c(=O)[nH]1,.,.,.,.,.
Nc1ncnc2c1ncn2[C@@H]1O[C@H](C(=O)N2CCN(c3ccc(Cl)cn3)CC2)[C@@H](O)[C@H]1O,/,/,/,.,20.6µM
Nc1ccn([C@@H]2O[C@H](C(=O)N3CCN(c4ccc(Cl)cn4)CC3)[C@@H](O)[C@H]2O)c(=O)n1,/,/,/,.,.
COc1ccc(Cl)cc1NC(=O)Cn1c(NCCO)nc2ccccc21,.,.,.,?,?
O=C([O-])c1ccccc1-[n+]1c(-c2ccccc2)cc(-c2ccccc2)cc1-c1ccccc1,.,/,.,4.61µM,5.8µM
Cc1cc(C)nc(NC(=S)NC(=O)c2ccccc2F)n1,/,/,.,.,.
Cc1cc(NC(=O)c2ccccc2F)on1,.,.,.,13µM,.
CC(C)[C@H](NC(=O)c1ccccc1F)C(=O)Nc1ccc(F)c(F)c1,/,.,.,.,.
Cc1ccccc1C(=O)NC(C(=O)Nc1nc2c(s1)CCCC2)C(C)C (stereo not drawn),.,.,.,25.9µM,25.9µM
Cc1csc(NC(=O)C(NC(=O)c2ccccc2F)C(C)C)n1 (stereo not drawn),.,.,.,?,20.6µM
Cc1[nH]c2ccccc2c1SCC(=O)N1CCCc2ccccc21,.,.,.,?,?
SMILES,TDP1 block,miR-21 FLuc,uPA surface inh,DT40 TDP1 CPT,TDP1 cell noCPT
Cc1ccc(S(=O)(=O)Nc2ccccc2F)cc1C(=O)OC(C)C(=O)N1CCOCC1 (stereo not drawn),/,/,.,.,.
Cc1cc(C)n(C(=O)/C(C#N)=N/Nc2cc(Cl)cc(Cl)c2)n1,.,?,.,3.26µM,2.59µM
COc1ccc(CCCc2n[nH]c(=S)o2)c(C)c1,.,.,.,.,.
CSc1nc2n(n1)C(c1cccs1)C1=C(CCCC1=O)N2 (stereo not drawn),/,.,.,.,.
Cc1ccccc1CSc1nc2n(n1)C(c1cccs1)C1=C(CCCC1=O)N2 (stereo not drawn),.,.,.,20.6µM,18.4µM
O=C1CCCC2=C1C(c1cccs1)n1nc(SCc3ccccc3F)nc1N2 (stereo not drawn),.,.,.,11.6µM,23.1µM
COc1cc(CN2CCC(CCC(=O)NC3CC3)CC2)cc(Cl)c1OC,/,.,.,.,.
